We go through 2 compounds from ChEMBL document CHEMBL4425100, “Design, Synthesis, and Evaluation of in Vitro and in Vivo Anticancer Activity of 4-Substituted Coumarins: A Novel Class of Potent Tubulin Polymerization Inhibitors” (J Med Chem, 2016).

Experiment [1] relates to A2780S. To be noted: Homo sapiens, 24 h.
For experiment [2], the system named is A2780S. As to conditions: Mus musculus, iv, read-out: TGI.

The IC50 is the concentration that gives 50% inhibition. With `CC(=O)O[C@H]1C(=O)[C@@]2(C)[C@H]([C@H](OC(=O)c3ccccc3)[C@]3(O)C[C@H](OC(=O)[C@H](O)[C@@H](NC(=O)c4ccccc4)c4ccccc4)C(C)=C1C3(C)C)[C@]1(OC(C)=O)CO[C@@H]1C[C@@H]2O` [PACLITAXEL], the concentration for half-maximal inhibition (IC50) in the experiment with A2780S [1] was 58.1 nM. For the same compound, the inhibition in vivo at 30 mg/kg with A2780S [2] came out at 82.9%.

Compound `CC[C@]1(O)C[C@@H]2CN(CCc3c([nH]c4ccccc34)[C@@](C(=O)OC)(c3cc4c(cc3OC)N(C)[C@H]3[C@@](O)(C(=O)OC)[C@H](OC(C)=O)[C@]5(CC)C=CCN6CC[C@]43[C@@H]65)C2)C1` [VINBLASTINE] yielded an IC50 in the experiment on A2780S [1] of 22.5 nM.
